Drawing on patent publication US20210122804A1, “PEPTIDE LIGANDS FOR BINDING TO CD38” (BicycleTx Limited, priority 2018, published 2021), this text covers Ki for 68 molecules.

By UniProt entry, the sequences of proteins in these tests, tags left out. Residues count along the entry.
UniProt P28907, whole entry: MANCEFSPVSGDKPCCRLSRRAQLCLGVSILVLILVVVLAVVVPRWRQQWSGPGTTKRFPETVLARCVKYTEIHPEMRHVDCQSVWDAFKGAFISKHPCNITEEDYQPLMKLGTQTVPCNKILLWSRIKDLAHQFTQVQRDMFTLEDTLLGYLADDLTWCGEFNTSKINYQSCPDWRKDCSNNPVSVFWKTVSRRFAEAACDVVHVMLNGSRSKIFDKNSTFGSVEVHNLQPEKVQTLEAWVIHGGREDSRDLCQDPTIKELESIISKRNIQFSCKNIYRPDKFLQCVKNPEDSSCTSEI
UniProt P28907, 43-300 limits assumed: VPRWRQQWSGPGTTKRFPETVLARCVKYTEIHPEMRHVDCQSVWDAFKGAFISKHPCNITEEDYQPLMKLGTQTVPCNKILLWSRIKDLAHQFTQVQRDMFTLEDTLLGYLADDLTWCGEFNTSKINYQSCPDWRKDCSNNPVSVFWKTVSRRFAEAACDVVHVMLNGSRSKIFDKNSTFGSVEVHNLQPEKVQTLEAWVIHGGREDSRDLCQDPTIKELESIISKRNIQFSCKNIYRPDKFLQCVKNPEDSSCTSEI

What is called Ki is a measure of affinity in units of concentration, obtained from inhibition or displacement.

One experiment addresses human CD38 (Homo sapiens, UniProt P28907). Briefly: CD38 Competition Binding Assay (fluorescence polarisation). Particulars: Table 1; TBMB derivatives; average of two measurements; tracer ACTPCADFPIWGCA-Sar6-K(F1); read-out: Ki. Here is the method:
CD38 Competition Binding Assay Affinity of various bicycle peptide compounds for human CD38 (Ki) was determined using a fluorescence polarisation assay, using the method reported by Lea et al (Expert Opin Drug Discov. 2011 6(1): 17-3) and using the following fluorescently labelled peptides ACTPCADFPIWGCA-Sar6-K(F1) for TBMB derivatives and ACYWNPFTGCYTCA-Sar6-K(F1) for TATA derivatives where Fl is a fluorescein molecule.
Turning to [Ac]ACVPCADFPIWYC [BCY00009245], the inhibition constant Ki was determined as 26.8 nM.
Regarding [Ac]ACVPCADFPIWY[Dap(Me)] [BCY00009248], the inhibitory constant (Ki) came out at 698 nM.
Still for that read-out and setting: with [Ac]ACVP[Dap(Me)]ADFPIWYC [BCY00009247] the figure was more than 9400 nM.
[Ac]A[Dap(Me)]VPCADFPIWYC [BCY00009246]: the inhibition constant Ki is 46.3 nM.
For “[Ac]A[Dap(Me)]VPCADFPIWY[Dap(Me)] [BCY00009251]”, the Ki came to 331 nM.

Still in this experiment, the particulars now being: Table 2; reference bicycle ligands, TBMB or TATA scaffold (tracer differs by scaffold); evaluated as described in GB1800610.6.
The molecule “Ac-CFWLDGECFDWNHECA-Sar6-K(DOTA) [66-08-01-N016]” had a Ki of 51 nM.
Molecule Ac-CTPCADFPIWYC [66-03-06-N002] registered an inhibitory constant (Ki) of 106 nM.
Molecule Ac-CVKCADFPIWGC [66-03-11-N002] came in with an inhibition constant (Ki) of 298 nM.
On the same count and under the same terms, with Ac-CVPCADFPIWGC [66-03-04-N002] the figure was 152 nM; with Ac-CVPCADFPIWYCA-Sar6-K [66-03-00-N008], 73 nM; with “DOTA-(B-Ala)-Sar10-A-CVPCADFPIWYC [66-03-00-N007]”, 52.5 ± 26.5 nM.
Same read-out and setting: the result for “RHSNYCNFLCDDLCA-Sar6-K(Biotin) [66-20-00-T001-N001]” reads 2920 nM; that for SSQHGCAWLCPNLCA-Sar6-K [66-08-01-N006], 106 nM.

Staying with this experiment, now noted: first measurement; read-out: measured affinity (Ki) to CD38.
For the molecule [Ac]ACVPCADFPIWYC [BCY00009245], the inhibition constant (Ki) was found to be 35 nM.

Still in this experiment, the particulars now being: repeat measurement (n=2), mean; read-out: affinity (Ki) to CD38, mean value of repeat measurement.
For [Ac]ACVPCADFPIWYC [BCY00009245], the inhibition constant Ki amounted to 27 nM.

The next experiment concerns the target T1, human CD38 (human, UniProt P28907 43-300, limits assumed).
T1 construct: construct used is not described; also called hCD38
Put plainly: fluorescence polarisation competition; tracer m10.
Details: not given
For orientation: Fluorescence polarisation rises when a labelled molecule tumbles more slowly, as on binding a larger partner.
Molecule ACINYANICLDTEKMCA (three Cys thioether-linked to TBMB scaffold, bicyclic) [66-18-N001] yielded a Ki of 6890 nM.
On the same count and under the same terms, with ACTPCADMPIWTCA (three Cys thioether-linked to TBMB scaffold, bicyclic) [66-03-15-N001] the figure was 274 nM; with ACDFTMPCENWKYCA (three Cys thioether-linked to TBMB scaffold, bicyclic) [66-05-07-N001], 2530 nM.
In turn, ACVNFGSVCWDPDSRCA (three Cys thioether-linked to TBMB scaffold, bicyclic) [66-02-N002] returned an inhibition constant Ki of 3660 nM.
As for ACFKLDGVCFDLFHECA (three Cys thioether-linked to TBMB scaffold, bicyclic) [66-08-04-N001], the Ki worked out at 3820 nM.
Consider CVPCADFPIWGC (N-terminal acetyl (Ac); three Cys thioether-linked to TBMB scaffold, bicyclic) [66-03-04-N002], for which the Ki was determined as 152 nM.
Same read-out and setting: with CVKCADFPIWGC (N-terminal acetyl (Ac); three Cys thioether-linked to TBMB scaffold, bicyclic) [66-03-11-N002] the figure was 298 nM.
Still for that read-out and setting: the result for ACIPCADFPISVCA (three Cys thioether-linked to TBMB scaffold, bicyclic) [66-03-24-N003] reads 170 nM.
The same measure, in the same setting: the result for ACVPCADFPISFCA (three Cys thioether-linked to TBMB scaffold, bicyclic) [66-03-25-N002] reads 208 nM; that for ACVPCADFPISVCA (three Cys thioether-linked to TBMB scaffold, bicyclic) [66-03-27-N003], 143 nM.
In the case of ACIPCADFPISFCA (three Cys thioether-linked to TBMB scaffold, bicyclic) [66-03-26-N003], the Ki was found to be 160 nM.
Same read-out and setting: the result for ACIFDYDCDAWSACA (three Cys thioether-linked to TBMB scaffold, bicyclic) [66-06-N002] reads 7250 nM.
On the same count and under the same terms, with ACDYCVRLGLTGCA (three Cys thioether-linked to TBMB scaffold, bicyclic) [66-09-N001] the figure was 1260 nM.
On the same count and under the same terms, the result for ACDYCIRLGLTGCA (three Cys thioether-linked to TBMB scaffold, bicyclic) [66-12-N001] reads 520 nM.
For CFWLDGECFDWNHEC (N-terminal acetyl (Ac); three Cys thioether-linked to TBMB scaffold, bicyclic) [66-08-01-N004], the affinity corresponds to a Ki of 99 nM.
Same read-out and setting: the result for ACIRYGDICYDPDHSCA (three Cys thioether-linked to TBMB scaffold, bicyclic) [66-17-01-N001] reads 260 nM.
For ACFMLDGECFDLNKECA (N-terminal acetyl (Ac); three Cys thioether-linked to TBMB scaffold, bicyclic) [66-08-05-N001], the affinity corresponds to a Ki of 1370 nM.
On the same count and under the same terms, the result for ACTWCVDDGLSFCA (three Cys thioether-linked to TBMB scaffold, bicyclic) [66-10-N001] reads 270 nM; that for ACFTLDGECFDVNRECA (three Cys thioether-linked to TBMB scaffold, bicyclic) [66-08-13-N001], 905 nM.
The same measure, in the same setting: with ACFTLDGECFDWDAECA (three Cys thioether-linked to TBMB scaffold, bicyclic) [66-08-07-N001] the figure was 230 nM; with ACDWCTDNIPGICA (three Cys thioether-linked to TBMB scaffold, bicyclic) [66-13-N001], 357 nM; with ACVPCADFPIWGCA (three Cys thioether-linked to TBMB scaffold, bicyclic) [66-03-04-N001], 58.5 nM.
For the molecule ACVMCADFPIWGCA (three Cys thioether-linked to TBMB scaffold, bicyclic) [66-03-05-N001], the inhibitory constant (Ki) was determined as 155 nM.
Same read-out and setting: with ACVACADFPIWGCA (three Cys thioether-linked to TBMB scaffold, bicyclic) [66-03-08-N001] the figure was 174 nM; with ACVKCADFPIWGCA (three Cys thioether-linked to TBMB scaffold, bicyclic) [66-03-11-N001], 41.3 nM.
For ACVPCADFPIWWCA (three Cys thioether-linked to TBMB scaffold, bicyclic) [66-03-00-N005], the Ki stood at 110 nM.
ACTPCADFPIYGCA (three Cys thioether-linked to TBMB scaffold, bicyclic) [66-03-09-N001] came in with a Ki of 1050 nM.
The same measure, in the same setting: with ACVHCADFPIWGCA (three Cys thioether-linked to TBMB scaffold, bicyclic) [66-03-03-N001] the figure was 61 nM; with ACTPCADFPIWGCA (three Cys thioether-linked to TBMB scaffold, bicyclic) [66-03-N002], 198 nM.
On the same count and under the same terms, with ACTPCADFPIWYCA (three Cys thioether-linked to TBMB scaffold, bicyclic) [66-03-06-N001] the figure was 64 nM; with ACIPCADFPIWGCA (three Cys thioether-linked to TBMB scaffold, bicyclic) [66-03-16-N001], 114 nM.
Still for that read-out and setting: the result for ACTPCADFPIWSCA (three Cys thioether-linked to TBMB scaffold, bicyclic) [66-03-01-N001] reads 471 nM; that for ACVPCADFPIWYCA (three Cys thioether-linked to TBMB scaffold, bicyclic) [66-03-00-N004], 35.3 nM.
ACFWLDGECFDWNHECA (three Cys thioether-linked to TBMB scaffold, bicyclic) [66-08-01-N001] came in with an inhibition constant (Ki) of 43.3 nM.
Still for that read-out and setting: with ACIRYGDICFHPDYTCA (three Cys thioether-linked to TBMB scaffold, bicyclic) [66-17-N001] the figure was 1170 nM; with ACTWCVDDETWNCA (three Cys thioether-linked to TBMB scaffold, bicyclic) [66-11-N001], 767 nM.
With ACFELDGSCFDFDHECA (three Cys thioether-linked to TBMB scaffold, bicyclic) [66-08-09-N001], the inhibitory constant (Ki) was determined as 611 nM.
The same measure, in the same setting: with ACFWLDHECFDWTHECA (three Cys thioether-linked to TBMB scaffold, bicyclic) [66-08-15-N001] the figure was 258 nM; with ACDFTMPCPNWNACA (three Cys thioether-linked to TBMB scaffold, bicyclic) [66-05-09-N001], 3950 nM; with ACVPCADFPIFTCA (three Cys thioether-linked to TBMB scaffold, bicyclic) [66-03-28-N002], 44.5 nM.
Molecule ACIPCADFPIFTCA (three Cys thioether-linked to TBMB scaffold, bicyclic) [66-03-29-N003] displayed a Ki of 139 nM.
In turn, ACDFTMPCQMWEQCA (three Cys thioether-linked to TBMB scaffold, bicyclic) [66-05-N002] came in with an inhibition constant (Ki) of 4060 nM.
On the same count and under the same terms, with ACFELDGTCFDWAQECA (three Cys thioether-linked to TBMB scaffold, bicyclic) [66-01-N002] the figure was 1180 nM; with ACFTLDGECFDWTHECA (three Cys thioether-linked to TBMB scaffold, bicyclic) [66-08-03-N001], 139 nM.
The same measure, in the same setting: the result for ACFTLDGQCFDWTHECA (three Cys thioether-linked to TBMB scaffold, bicyclic) [66-08-32-N001] reads 794 nM.
Consider ACFYLDGTCFDWTHECA (three Cys thioether-linked to TBMB scaffold, bicyclic) [66-08-41-N001], for which the Ki came out at 1200 nM.
Same read-out and setting: with ACFKLDGECFDWTHECA (three Cys thioether-linked to TBMB scaffold, bicyclic) [66-08-06-N001] the figure was 677 nM; with ACFSLDGACFDWTHECA (three Cys thioether-linked to TBMB scaffold, bicyclic) [66-08-26-N001], 987 nM; with ACFTLDGACFDWTHECA (three Cys thioether-linked to TBMB scaffold, bicyclic) [66-08-N002], 1100 nM.
ACFTLDGTCFDWTHECA (three Cys thioether-linked to TBMB scaffold, bicyclic) [66-08-35-N001] returned a Ki of 744 nM.
Turning to ACTPCADFPILTCA (three Cys thioether-linked to TBMB scaffold, bicyclic) [66-03-07-N001], the Ki was found to be 257 nM.
Molecule ACTPCADFPILDCA (three Cys thioether-linked to TBMB scaffold, bicyclic) [66-03-10-N001] yielded an inhibition constant (Ki) of 1700 nM.
As to ACTPCADFPIHTCA (three Cys thioether-linked to TBMB scaffold, bicyclic) [66-03-02-N001], affinity was put at a Ki of 995 nM.
Still for that read-out and setting: with ACFSLDGECFDLSGECA (three Cys thioether-linked to TBMB scaffold, bicyclic) [66-08-02-N001] the figure was 305 nM; with CTPCADFPIWYC (N-terminal acetyl (Ac); three Cys thioether-linked to TBMB scaffold, bicyclic) [66-03-06-N002], 106 nM.
